Assay [1] relates to third Ig module of the FGF-receptor. The class given is binding. The note with it: 0.05 mM 15N-labeled second F3 module + 1 mM third Ig module of the FGF-receptor. The source says:
(§1) This expression system was selected because P. pastoris is capable of protein folding and processing similar to higher eukaryotes, and the protein secreted into the medium can be purified easily.

The chains behind the UniProt entries cited, without tags or fusion partners. Residues count along the entry.
UniProt P11362, 22-822: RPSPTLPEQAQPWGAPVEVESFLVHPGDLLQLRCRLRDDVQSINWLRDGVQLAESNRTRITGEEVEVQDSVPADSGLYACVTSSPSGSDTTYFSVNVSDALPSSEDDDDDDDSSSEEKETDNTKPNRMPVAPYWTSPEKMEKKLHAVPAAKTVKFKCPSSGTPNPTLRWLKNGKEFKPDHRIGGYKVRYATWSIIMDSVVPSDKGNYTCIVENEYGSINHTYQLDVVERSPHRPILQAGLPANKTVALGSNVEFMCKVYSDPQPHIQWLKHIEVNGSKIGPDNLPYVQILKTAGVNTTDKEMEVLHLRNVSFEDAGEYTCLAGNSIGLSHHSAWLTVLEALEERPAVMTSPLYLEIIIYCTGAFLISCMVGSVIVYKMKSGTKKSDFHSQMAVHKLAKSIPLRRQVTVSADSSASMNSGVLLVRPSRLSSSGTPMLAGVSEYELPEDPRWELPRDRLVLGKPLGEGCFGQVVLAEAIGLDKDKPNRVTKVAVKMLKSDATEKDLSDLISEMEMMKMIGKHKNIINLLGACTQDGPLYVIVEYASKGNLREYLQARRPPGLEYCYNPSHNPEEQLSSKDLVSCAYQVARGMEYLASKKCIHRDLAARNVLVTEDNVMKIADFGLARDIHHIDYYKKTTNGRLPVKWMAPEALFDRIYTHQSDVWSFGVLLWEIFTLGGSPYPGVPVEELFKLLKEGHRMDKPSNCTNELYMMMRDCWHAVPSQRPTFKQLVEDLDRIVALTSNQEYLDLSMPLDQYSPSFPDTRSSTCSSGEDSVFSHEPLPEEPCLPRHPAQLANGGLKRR

Assay [2] relates to second Ig module of the FGF-receptor. In kind it is binding. The note with it: 0.05 mM 15N-labeled second F3 module + 1 mM second Ig module of the FGF-receptor.
Excerpt: as §1

In the next assay the target is T1, FGF-receptor 1 (Homo sapiens, UniProt P11362).
T1 construct: expressed in transfected cells; host or cells: HEK293, transient, PcDNA3.1(+) plasmid
Description: FGF-receptor phosphorylation in transfected HEK293 cells (immunoblotting). In kind it is cell-based. The note with it: 5 μM, 20 min, HEK293 cells with His-tagged FGF-receptor 1. The method, then: Cells were grown in DMEM 1965 with 10% FCS, 100 U/ml penicillin, 100 μg/ml streptomycin and 58.4 g/l Glutamax. ˜0.8*10^6 cells were plated in 60 mm plates and cultured for 24 hrs before being transfected using LipofectAMIN PLUS™ reagent kit according to manufacturers instructions (Gibco BRL) with 0.2 μg PcDNA3.1(+) plasmid encoding a his-tagged (C-terminal hexa-histidine) version of FGFR-1. Cells were grown another 24 hrs in full medium, and then shifted to starving media (DMEM 1965 with 0.5% FCS) overnight.
FGFR-1 transfected cells, incubated with 50 μg/ml NCAM derived recombinant fIII.2 or FG-loop for 20 minutes or non-stimulated, were lysed in 8M urea in PBS with 1 mM orthovanadate. The FGFR-1 was purified from total lysate via the His-tag moiety on an IMAC column. […] Samples were added SDS-PAGE sample buffer and analysed by western blotting using anti-pentahis ab (#34660 Qiagen) or anti-phosphotyrosine ab (PY20) (#11120 Transduction Laboratories). Bands were visualised by chemilumiscense and density was measured using a GeneGnome from SynGene with a 16 bit camera.
Therefore, HEK293 cells were grown for 24 h on plastic plates, and subsequently transfected with a His-tagged version of the FGF-receptor 1 and cultured for another 24 h. […] The purified FGF-receptor 1 was then analyzed by immunoblotting using antibodies either to the His-tag or phosphotyrosine. […]
(Immunoblotting shows a protein as a band on a membrane.)

A further assay relates to hippocampal neurons. Briefly: Neurite outgrowth from hippocampal neurons.

B1: second F3 module of NCAM: recombinant protein corresponding to aminoacids 612-705 of rat NCAM (swissprot p13596), produced in yeast P. pastoris (protein)
chain: AGPSAPKLEGQMGEDGNSIKVNLIKQDDGGSPIRHYLVKYRALASEWKPEIRLPSGSDHVMLKSLDWNAEYEVYVVAENQQGKSKAAHFVFRTSAQ
As for B1, in assay [1], the “changes of 1H and 15N chemical shifts of residues of the F3 module” value is “significant perturbation”. In assay [2], the “changes of the chemical shifts of the F3 module” value is “No significant changes of the chemical shifts”. For the same molecule, in the assay with FGF-receptor 1, the “increase of FGF-receptor phosphorylation compared to control cells” value was “approx. 150%”. For the same molecule, in the assay on hippocampal neurons (5 μM second F3 module or 50 μM FG loop peptide), the “inhibition of induced neurite outgrowth by an antibody against the FGF-receptor” value is on record as “complete inhibition”. In addition, the “length of neurites per cell compared to control, non-stimulated neurons” value in the assay on hippocampal neurons (5 μM, 24 h) was “substantially increased”. For the same molecule, the “neurite outgrowth in dose-response study” value in the assay on hippocampal neurons (bell-shaped dose-response curve, 24 h) is on record as “induced neurite outgrowth”.

The record behind these values is patent US8071549B2, “Compounds capable of affecting differentiation, proliferation, regeneration, plasticity and survival cells” (priority 2001, dated 2011).
